The values below come from BindingDB's records for PubMed 9864265 (Second Tokushima Institute of New Drug Research, 1998).

The chains behind the UniProt entries cited, without tags or fusion partners.
UniProt Q00788, whole entry: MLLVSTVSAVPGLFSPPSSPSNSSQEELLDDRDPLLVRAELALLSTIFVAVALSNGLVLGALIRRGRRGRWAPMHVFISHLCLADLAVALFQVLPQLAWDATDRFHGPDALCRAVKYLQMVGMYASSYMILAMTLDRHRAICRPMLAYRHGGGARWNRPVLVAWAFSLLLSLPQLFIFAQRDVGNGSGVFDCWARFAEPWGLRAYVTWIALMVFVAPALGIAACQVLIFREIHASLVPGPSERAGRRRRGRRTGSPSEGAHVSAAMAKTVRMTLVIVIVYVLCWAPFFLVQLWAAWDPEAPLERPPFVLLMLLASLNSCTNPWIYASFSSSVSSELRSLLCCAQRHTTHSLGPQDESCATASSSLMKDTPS

Broadly, the Ki is the dissociation constant of the complex between target and ligand, obtained from inhibition or displacement. Higher therefore signals weaker binding.

In this assay the target is Vasopressin V2 receptor (Rattus norvegicus, UniProt Q00788).

Compound `NC(=O)CC[C@@H]1NC(=O)[C@H](Cc2ccccc2)NC(=O)[C@H](Cc2ccc(O)cc2)NC(=O)[C@@H](N)CSSC[C@@H](C(=O)N2CCC[C@H]2C(=O)N[C@@H](CCCN=C(N)N)C(=O)NCC(N)=O)NC(=O)[C@H](CC(N)=O)NC1=O` [[3H]Argipressin tannate] showed a Ki of 0.95 nM.
